# In PubChem BioAssay AID449768 (Vanderbilt High Throughput Screening Facility, 2010):
# By UniProt entry, the sequences of proteins in these tests, tags left out.
# UniProt Q01959, whole entry: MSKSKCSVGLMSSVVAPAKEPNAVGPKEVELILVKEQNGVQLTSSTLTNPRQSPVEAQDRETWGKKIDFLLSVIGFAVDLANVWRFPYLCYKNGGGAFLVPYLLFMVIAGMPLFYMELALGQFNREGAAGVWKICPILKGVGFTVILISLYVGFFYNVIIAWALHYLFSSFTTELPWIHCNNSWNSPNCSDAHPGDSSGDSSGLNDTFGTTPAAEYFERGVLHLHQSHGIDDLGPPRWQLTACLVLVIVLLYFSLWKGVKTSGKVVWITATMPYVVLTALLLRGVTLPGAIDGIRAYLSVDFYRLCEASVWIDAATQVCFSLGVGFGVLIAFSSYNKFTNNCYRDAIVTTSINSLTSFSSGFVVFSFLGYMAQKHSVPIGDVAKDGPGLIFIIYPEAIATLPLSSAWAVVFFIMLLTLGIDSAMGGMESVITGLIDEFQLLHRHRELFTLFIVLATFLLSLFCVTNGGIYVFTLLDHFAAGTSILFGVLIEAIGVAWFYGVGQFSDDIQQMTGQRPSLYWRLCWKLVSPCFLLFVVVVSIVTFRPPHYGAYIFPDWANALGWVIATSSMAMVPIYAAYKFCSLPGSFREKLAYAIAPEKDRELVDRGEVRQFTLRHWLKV
# The entries are a selection whose mix differs from that of the whole data set. Some salts or complexes appear as unconnected parts, following the source record. Calls of active or inactive are those of the source.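 How the source made its calls: active means Z score or B-score, a plate-position-corrected score, falls beyond the plate's 99.7% confidence bounds, in either direction; inactive means both scores lie inside the 99.7% bounds.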
# Target: Sodium-dependent dopamine transporter (Homo sapiens) (UniProt Q01959)
# Test: changed hDAT dopamine uptake under cocaine IC80, either direction, primary screen, cocaine antagonist project, cell-based, LLC-PK1 hDAT, [14C]-dopamine uptake, MLSMR (AID 449768);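 further: scored against the spread of the other compound wells on the same plate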
# Settings: LLC-PK1 hDAT cells, [14C]-dopamine uptake with cocaine IC80; at 10 µM; actives deviate in either direction
row,Compound,B-score
1,Cc1cc(C)cc(OP(C)(=O)Nc2ccc(C)cc2C)c1 (centres undefined),inactive: 1.48
2,Cc1ccc(C)c(NP(C)(=O)Oc2ccccc2)c1 (centres undefined),inactive: -0.0529
3,Cc1cc(C)cc(OP(C)(=O)Nc2ccccn2)c1 (centres undefined),inactive: -0.015
4,COc1ccccc1OP(C)(=O)Nc1c(C)cccc1C (centres undefined),inactive: 0.00731
5,Cc1nc2ccc3ccccc3c2s1.O=[N+]([O-])c1cc([N+](=O)[O-])c(O)c([N+](=O)[O-])c1,inactive: -1.32
6,CP(=O)(NC(=O)Nc1ccccc1)Oc1ccccc1 (centres undefined),inactive: -0.0429
7,CCOP(C)(=S)SCC(=O)NC(C)C(=O)O (centres undefined),inactive: -0.157
8,CP(=O)(Nc1ccccn1)Oc1ccc(Cl)cc1 (centres undefined),inactive: -0.729
9,CP(=S)(Nn1cnnc1)Oc1ccccc1 (centres undefined),inactive: -0.18
10,Cc1ccc(NP(C)(=O)Oc2ccccc2)c(C)c1 (centres undefined),inactive: 1.1
11,COc1ccccc1OP(C)(=O)Nc1ccc(C)cc1 (centres undefined),inactive: 0.221
12,COc1ccc(OP(C)(=O)Nc2ccccn2)cc1 (centres undefined),inactive: -0.142
13,CN(C)CCOC(=O)C(O)(c1ccccc1)C1CCCC1 (centres undefined),inactive: -1.38
14,Cc1c(NP(C)(=O)Oc2ccc(C(C)C)cc2)c(=O)n(-c2ccccc2)n1C (centres undefined),inactive: -0.264
15,COc1ccccc1OP(C)(=O)Nc1ccc(C)cc1C (centres undefined),inactive: 0.0444
16,CP(=O)(Nc1ccccn1)Oc1ccccc1 (centres undefined),inactive: -0.00788
17,CCc1ccc(OP(C)(=O)O)cc1,inactive: -0.194

row,Compound,B-score
1,COc1ccccc1OP(C)(=O)Nc1ccc(C)c(C)c1 (centres undefined),inactive: 0.899
2,Cc1nc2ccc3ccccc3c2o1.O=[N+]([O-])c1cc([N+](=O)[O-])c(O)c([N+](=O)[O-])c1,inactive: -0.639
3,CP(=O)(OC12CC3CC(CC(C3)C1)C2)OC12CC3CC(CC(C3)C1)C2,inactive: -0.573
4,CCN(CC)CC(O)COC(=O)C(O)(c1ccccc1)C1CCCCC1 (centres undefined),inactive: -1.43
5,COc1ccccc1OP(C)(=O)Nc1c(C)n(C)n(-c2ccccc2)c1=O (centres undefined),inactive: -0.0101
6,CP(=O)(Oc1ccccc1)N1CCOC1=O (centres undefined),inactive: 0.418
7,CC(C)(C)c1ccc(OP(C)(=O)O)cc1,inactive: -0.0118
8,CP(=O)(Nc1ccc(Cl)cc1)Oc1ccc(F)cc1 (centres undefined),inactive: -0.244
9,CCOP(C)(=S)SCC(=O)NC(C)(CC)C(=O)O (centres undefined),inactive: -1.19
10,CP(=O)(Nc1ccc2c(c1)OCCO2)Oc1ccccc1 (centres undefined),active: -2.08
11,Cc1ccccc1NP(C)(=O)Nc1ccccc1C,inactive: -0.113
12,COc1ccc(OP(C)(=O)Nc2cccc(Br)c2)cc1 (centres undefined),inactive: -0.649
13,CN(C)CCOC(=O)C(O)(c1ccccc1)C1CCCCC1 (centres undefined),inactive: -0.065
14,CCN(CC)CCCOC(=O)C(O)(c1ccccc1)C1CCCCC1 (centres undefined),inactive: -1.38
15,CP(=O)(Nc1ccccc1)Oc1ccc(F)cc1 (centres undefined),inactive: -0.0476
16,CP(=O)(Nc1ccccc1F)Oc1ccccc1 (centres undefined),inactive: -1.2
17,COc1ccc2c(c1O)-c1c(O)c(OC)cc3c1[C@H](C2)[N+](C)(C)CC3.O=[N+]([O-])c1cc([N+](=O)[O-])c([O-])c([N+](=O)[O-])c1[O-],inactive: -0.151
